From article PMC7910549 come the findings set out here.

The test deals with GFP-tagged CSB (UniProt Q03468). The experiment in a line: affinity purification with mass spectrometry; label-free quantification and iBAQ; GFP-CSB pulled down with GFP Trap beads from U2OS CSB-KO cells; untreated against 20 J/m^2 UV-C with 1 h recovery.

Take “polymerase-associated factor 1 complex (PAF1C), endogenous (from UniProt Q8N7H5 1-531; Q8WVC0 1-666; Q6PD62 1-1173; Q9GZS3 1-305; Q6P1J9 1-531)”: the percent of the isolated CSB molecules associated (iBAQ) is greater than 60%.
